Test results from patent US20260382605A1, “REVERSIBLE MACROCYCLIC KINASE INHIBITORS” (published 2026).

Amino acid sequences for entries named in this document (tags omitted). Residues count along the entry.
UniProt P36888, 27-993 limits assumed: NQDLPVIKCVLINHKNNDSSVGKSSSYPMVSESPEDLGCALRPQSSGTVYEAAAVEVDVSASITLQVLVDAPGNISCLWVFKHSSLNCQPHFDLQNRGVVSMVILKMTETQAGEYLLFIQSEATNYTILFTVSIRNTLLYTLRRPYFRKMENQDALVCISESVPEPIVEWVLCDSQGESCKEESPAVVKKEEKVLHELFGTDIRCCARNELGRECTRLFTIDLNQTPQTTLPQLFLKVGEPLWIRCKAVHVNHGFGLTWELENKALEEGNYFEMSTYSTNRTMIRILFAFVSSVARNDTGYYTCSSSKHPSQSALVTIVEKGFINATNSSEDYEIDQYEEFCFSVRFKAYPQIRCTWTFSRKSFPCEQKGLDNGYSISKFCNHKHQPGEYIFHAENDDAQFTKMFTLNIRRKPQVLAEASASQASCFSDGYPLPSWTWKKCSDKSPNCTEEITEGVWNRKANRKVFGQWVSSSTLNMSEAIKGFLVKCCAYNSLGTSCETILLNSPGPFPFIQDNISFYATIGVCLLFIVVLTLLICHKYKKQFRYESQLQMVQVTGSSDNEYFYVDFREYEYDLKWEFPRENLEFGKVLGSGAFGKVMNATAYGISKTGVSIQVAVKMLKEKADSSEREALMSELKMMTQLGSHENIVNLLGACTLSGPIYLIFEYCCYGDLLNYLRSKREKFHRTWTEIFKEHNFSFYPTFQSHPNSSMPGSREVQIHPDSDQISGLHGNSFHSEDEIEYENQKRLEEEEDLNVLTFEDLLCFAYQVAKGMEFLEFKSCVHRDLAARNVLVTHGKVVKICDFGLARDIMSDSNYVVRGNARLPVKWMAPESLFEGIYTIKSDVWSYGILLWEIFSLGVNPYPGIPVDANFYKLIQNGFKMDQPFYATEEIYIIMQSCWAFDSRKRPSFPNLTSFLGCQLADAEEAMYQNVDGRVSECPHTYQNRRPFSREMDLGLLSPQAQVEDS
UniProt P07949, 29-1114 limits assumed: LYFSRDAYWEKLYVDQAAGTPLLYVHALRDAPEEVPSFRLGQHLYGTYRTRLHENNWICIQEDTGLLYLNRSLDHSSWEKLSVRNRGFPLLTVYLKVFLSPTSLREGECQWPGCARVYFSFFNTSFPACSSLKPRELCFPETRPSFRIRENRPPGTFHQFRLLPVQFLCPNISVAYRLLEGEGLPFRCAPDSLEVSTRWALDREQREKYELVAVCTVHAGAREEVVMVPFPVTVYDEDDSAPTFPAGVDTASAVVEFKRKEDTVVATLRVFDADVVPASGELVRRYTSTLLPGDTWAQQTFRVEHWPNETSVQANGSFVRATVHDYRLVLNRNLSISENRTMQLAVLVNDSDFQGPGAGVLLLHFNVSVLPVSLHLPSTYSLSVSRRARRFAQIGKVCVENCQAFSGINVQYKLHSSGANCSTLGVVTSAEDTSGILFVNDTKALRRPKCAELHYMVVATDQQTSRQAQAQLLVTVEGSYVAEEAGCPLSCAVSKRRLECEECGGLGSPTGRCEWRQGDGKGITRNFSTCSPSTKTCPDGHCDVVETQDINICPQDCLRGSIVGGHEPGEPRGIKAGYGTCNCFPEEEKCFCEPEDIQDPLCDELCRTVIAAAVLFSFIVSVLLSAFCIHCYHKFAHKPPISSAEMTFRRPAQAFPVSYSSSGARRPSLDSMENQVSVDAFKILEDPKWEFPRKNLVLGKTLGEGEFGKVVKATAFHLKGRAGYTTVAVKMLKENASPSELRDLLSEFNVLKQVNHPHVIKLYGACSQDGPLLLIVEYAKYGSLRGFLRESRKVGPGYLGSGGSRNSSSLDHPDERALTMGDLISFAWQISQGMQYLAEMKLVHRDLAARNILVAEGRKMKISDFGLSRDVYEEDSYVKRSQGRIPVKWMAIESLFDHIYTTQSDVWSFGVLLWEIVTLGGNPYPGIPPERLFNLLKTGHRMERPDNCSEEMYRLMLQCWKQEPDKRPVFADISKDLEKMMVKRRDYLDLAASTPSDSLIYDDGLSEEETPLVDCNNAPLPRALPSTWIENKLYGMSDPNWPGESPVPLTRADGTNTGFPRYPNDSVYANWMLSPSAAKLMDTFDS
UniProt Q96GD4, whole entry: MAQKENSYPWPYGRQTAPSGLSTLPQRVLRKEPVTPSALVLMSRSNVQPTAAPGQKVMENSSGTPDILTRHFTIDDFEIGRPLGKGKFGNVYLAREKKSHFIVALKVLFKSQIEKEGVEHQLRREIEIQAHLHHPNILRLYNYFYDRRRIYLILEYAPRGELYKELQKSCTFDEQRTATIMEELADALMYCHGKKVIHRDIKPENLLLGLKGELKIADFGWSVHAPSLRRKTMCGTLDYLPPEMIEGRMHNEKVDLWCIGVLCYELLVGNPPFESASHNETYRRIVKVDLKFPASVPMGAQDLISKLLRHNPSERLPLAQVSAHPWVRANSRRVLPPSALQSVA
UniProt P07333, 20-972 limits assumed: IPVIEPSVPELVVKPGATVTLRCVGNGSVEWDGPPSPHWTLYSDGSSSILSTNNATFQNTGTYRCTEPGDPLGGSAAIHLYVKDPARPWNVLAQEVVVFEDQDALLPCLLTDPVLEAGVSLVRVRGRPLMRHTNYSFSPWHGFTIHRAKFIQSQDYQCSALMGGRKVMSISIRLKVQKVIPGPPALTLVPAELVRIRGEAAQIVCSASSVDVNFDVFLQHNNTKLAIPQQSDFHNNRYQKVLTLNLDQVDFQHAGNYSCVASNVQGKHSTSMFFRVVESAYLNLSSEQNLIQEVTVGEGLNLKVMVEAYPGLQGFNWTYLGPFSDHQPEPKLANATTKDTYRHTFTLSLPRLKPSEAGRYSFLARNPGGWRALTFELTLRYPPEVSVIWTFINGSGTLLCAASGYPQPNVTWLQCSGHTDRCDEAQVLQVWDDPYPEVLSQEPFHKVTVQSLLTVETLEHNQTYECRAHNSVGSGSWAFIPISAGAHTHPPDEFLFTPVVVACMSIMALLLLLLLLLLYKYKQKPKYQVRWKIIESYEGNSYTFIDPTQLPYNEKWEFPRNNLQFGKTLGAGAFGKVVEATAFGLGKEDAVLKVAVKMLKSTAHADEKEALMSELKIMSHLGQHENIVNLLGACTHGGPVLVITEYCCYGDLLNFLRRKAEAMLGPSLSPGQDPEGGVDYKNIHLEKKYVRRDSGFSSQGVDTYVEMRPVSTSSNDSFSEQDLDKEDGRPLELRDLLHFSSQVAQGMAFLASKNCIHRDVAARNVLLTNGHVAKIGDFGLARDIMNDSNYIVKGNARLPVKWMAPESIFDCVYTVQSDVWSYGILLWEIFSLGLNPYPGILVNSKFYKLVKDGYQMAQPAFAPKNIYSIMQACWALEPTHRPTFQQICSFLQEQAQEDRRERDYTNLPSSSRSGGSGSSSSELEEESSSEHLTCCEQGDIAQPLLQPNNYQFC
UniProt Q06187, whole entry: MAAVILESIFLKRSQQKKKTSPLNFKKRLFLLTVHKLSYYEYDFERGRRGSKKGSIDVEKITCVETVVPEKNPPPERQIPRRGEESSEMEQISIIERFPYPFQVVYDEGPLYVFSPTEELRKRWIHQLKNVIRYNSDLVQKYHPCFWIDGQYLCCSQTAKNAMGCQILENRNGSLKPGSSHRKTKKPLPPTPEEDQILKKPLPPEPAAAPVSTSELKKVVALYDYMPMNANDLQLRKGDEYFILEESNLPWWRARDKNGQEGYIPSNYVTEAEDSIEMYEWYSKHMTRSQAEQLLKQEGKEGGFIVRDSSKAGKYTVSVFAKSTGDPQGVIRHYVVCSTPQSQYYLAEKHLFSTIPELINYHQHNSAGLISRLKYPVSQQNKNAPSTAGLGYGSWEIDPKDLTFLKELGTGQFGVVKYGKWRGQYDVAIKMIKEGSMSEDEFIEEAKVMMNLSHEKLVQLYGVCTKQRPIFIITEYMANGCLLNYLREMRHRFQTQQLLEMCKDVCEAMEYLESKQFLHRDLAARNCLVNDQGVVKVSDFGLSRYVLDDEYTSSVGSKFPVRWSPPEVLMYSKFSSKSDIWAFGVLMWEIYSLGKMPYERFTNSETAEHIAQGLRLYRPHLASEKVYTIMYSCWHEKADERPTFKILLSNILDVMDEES
UniProt P09619, 33-1106 limits assumed: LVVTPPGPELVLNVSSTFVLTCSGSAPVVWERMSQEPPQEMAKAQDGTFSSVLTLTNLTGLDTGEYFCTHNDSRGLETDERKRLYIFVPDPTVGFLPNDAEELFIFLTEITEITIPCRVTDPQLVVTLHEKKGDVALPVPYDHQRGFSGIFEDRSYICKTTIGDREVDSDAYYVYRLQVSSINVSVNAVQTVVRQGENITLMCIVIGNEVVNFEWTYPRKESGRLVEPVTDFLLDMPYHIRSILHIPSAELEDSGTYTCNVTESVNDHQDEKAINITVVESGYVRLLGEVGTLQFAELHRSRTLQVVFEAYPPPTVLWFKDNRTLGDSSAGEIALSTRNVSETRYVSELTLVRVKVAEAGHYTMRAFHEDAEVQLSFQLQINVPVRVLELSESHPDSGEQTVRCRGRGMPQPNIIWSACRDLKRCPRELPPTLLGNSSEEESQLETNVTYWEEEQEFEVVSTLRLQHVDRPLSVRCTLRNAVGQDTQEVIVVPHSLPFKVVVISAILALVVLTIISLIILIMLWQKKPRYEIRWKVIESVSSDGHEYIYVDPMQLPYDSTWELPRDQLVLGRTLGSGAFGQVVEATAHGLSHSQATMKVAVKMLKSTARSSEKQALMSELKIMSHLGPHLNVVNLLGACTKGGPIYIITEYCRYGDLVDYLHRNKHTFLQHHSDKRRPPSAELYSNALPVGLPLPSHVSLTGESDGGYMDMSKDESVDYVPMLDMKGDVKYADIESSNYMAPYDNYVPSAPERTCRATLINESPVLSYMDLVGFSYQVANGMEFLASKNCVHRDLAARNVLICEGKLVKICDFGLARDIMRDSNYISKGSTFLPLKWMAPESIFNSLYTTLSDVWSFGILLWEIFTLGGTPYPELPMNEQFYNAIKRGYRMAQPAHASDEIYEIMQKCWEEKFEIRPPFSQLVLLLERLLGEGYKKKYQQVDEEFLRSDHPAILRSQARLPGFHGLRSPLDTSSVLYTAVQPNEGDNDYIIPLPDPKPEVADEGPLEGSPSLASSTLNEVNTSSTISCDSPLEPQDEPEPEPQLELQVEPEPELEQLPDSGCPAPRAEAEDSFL
UniProt P22607, 436-806 limits assumed: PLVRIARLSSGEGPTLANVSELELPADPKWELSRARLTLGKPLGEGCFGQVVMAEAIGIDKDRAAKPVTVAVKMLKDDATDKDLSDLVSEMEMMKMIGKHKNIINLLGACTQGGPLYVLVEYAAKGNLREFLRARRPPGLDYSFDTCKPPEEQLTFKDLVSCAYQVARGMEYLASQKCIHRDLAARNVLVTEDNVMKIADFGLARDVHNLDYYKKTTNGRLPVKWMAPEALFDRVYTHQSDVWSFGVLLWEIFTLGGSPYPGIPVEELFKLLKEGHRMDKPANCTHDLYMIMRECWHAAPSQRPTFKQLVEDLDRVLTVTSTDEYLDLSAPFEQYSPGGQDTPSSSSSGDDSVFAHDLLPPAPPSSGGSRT

Legend:
FLT3 = FLT3 (Homo sapiens, UniProt P36888); assay: Binding kinetics assay (surface plasmon resonance) FLT3; conditions: FLT3, SPR, 22 °C
Excerpt: (§1) Binding Kinetics Assay wt-BTK, BTK C481S, LCK, FGFR1, FLT3, PDGFR-β, FMS, LYN, MEK1, AUR-B. ITK. VEGFR, EGFR, FGFR3, AXL, c-MET, SRC, YES, ABL, RET and IGFR1 (Surface Plasmon Resonance)
(§2) Streptavidin-coated chips (Cat. No. BR100531), disposables and maintenance kits for Biacore were purchased from Cytiva (Eindhoven, The Netherlands). Biotinylated wt-BTK enzym (Carna Biosciences, cat. no. 08-480-20N), BTK C481S (Carna Biosciences, cat. no. 08-417-20N), LCK (Carna Biosciences, cat. no. 08-470-20N), FGFR1 (Carna Biosciences, cat. no. 08-435-20N), FLT3 (Carna Biosciences, cat. no. 08-454-20N), PDGFR-β (Carna Biosciences, cat. no. 08-458-20N), FMS (Carna Biosciences, cat. no. 08-455-20N), LYN (Carna Biosciences, cat. no. 08-471-20N), MEK1 (Carna Biosciences, cat. no. 07-441-10-20N), AUR-B (Carna Biosciences, cat. no. 05-402-21N), ITK (Carna Biosciences, cat. no. 08-481-20N), VEGFR (Carna Biosciences, cat. no. 08-491-20N), EGFR (Carna Biosciences, cat. no. 08-415-20N), FGFR3 (Carna Biosciences, cat. no. 08-433-20N), AXL (Carna Biosciences, cat. no. 08-407-20N), c-MET (Carna Biosciences, cat. no. 08-451-20N), SRC (Carna Biosciences, cat. no. 08-473-20N), YES (Carna Biosciences, cat. no. 08-475-20N), ABL (Carna Biosciences, cat. no. 08-401-20N), RET (Carna Biosciences, cat. no. 08-459-20N) or IGFR1 (Carna Biosciences, cat. no. 08-441-20N) were immobilized on a streptavidin-coated chip to a level of about 8000 resonance units (RU) using Biacore buffer (50 mM Tris pH 7.5, 0.05% (v/v) Tween-20, 150 mM NaCl and 5 mM MgCl2)+1 mM TCEP. Remaining streptavidin was blocked with biocytin. Immobilization was performed at 4 °C. Subsequent assay steps were conducted at 22 °C. After changing buffer to Biacore buffer with 1% (v/v) dimethylsulfoxide (DMSO), a pre-run was performed for a period of at least 30 min at a flow rate of 30 μl/min to obtain a stable surface. The kinetic constants of the compounds were determined with single cycle kinetics with five consecutive injections with an increasing compound concentration with ranges of 3.16-316 nM. Experiments were performed with an association time of 100 s per concentration and a dissociation time of 1200 s, except for compounds with a long target residence time, such as irreversible inhibitors, where dissociation time was increased. To circumvent problems of mass transport limitation, a flow rate of 30 μl/min was used. A blank run with the same conditions was performed before the compound was injected. The SPR sensorgrams were analyzed with Biacore Evaluation Software by using a method of double referencing. First the reference channel was subtracted from the channel containing immobilized protein. Subsequently, the reference curve obtained with buffer injections was subtracted. The resulting curve was fitted with a 1:1 binding model. Compounds that bound according to an induced fit model were fitted with a two-state reaction model. The kinetic constants (ka, […], KD) of duplicates were geometrically averaged. Target residence time (τ) for the 1:1 binding model was calculated from the dissociation constant kd with the formula T=1/kd. Target residence for an induced fit model was calculated as described (Tummino and Copeland, 2008).

[1] = system: MV4-11 acute myelogenous leukemia cells; assay: Cell proliferation assay MV4-11; conditions: read-out: IC50 value, MV4-11 cells, 72 hours
Protocol: MV4-11 acute myelogenous leukemia cells were purchased from American Type Culture Collection (cat. no. CRL-9591, ATCC). Frozen stocks were thawed and cells were diluted in IMDM cell culture medium (cat. no. 31980022, Life Technologies), supplemented with 10% (v/v) bovine calf serum and 1% penicillin/streptavidin. 1600 cells per well (in 45 μl) were seeded in a white 384-well culture plate (cat. no. 781080, Greiner Bio-One) and allowed to rest for 24 hours at 37 °C, 95% humidity, and 5% CO2. 5 μl compound solution was added to the cells and incubation was continued for 72 hours (3 days), followed by addition of 24 μl ATPlite 1Step™ (PerkinElmer, Groningen, The Netherlands) solution was added to each well. Luminescence was recorded on an Envision multimode reader. The cell signal at the start of incubation was recorded separately in order to distinguish between cell population growth and cell death. In addition, maximum growth was determined by incubation of a duplicate without compound in the presence of 0.3% DMSO. Percentage growth was used as the main y-axis signal. IC50s were fitted by non-linear regression using IDBS XLfit™ 5 using a 4-parameter logistic curve, yielding a maximum signal, minimum signal, hill-parameter and IC50.

[2] = system: MOLM-13 acute myelogenous leukemia cells; assay: Cell proliferation assay MOLM-13; conditions: read-out: IC50 value, MOLM-13 cells, 72 hours
Protocol: MOLM-13 acute myelogenous leukemia cells were purchased from Deutsche Sammlung von Mikroorganismen und Zellkulturen (cat. no. ACC 554, DSMZ). Frozen stocks were thawed and cells were diluted in RPMI-1640 cell culture medium (cat. no. 61870036, Life Technologies), supplemented with 10% (v/v) bovine calf serum and 1% penicillin/streptavidin. 800 cells per well (in 45 μl) were seeded in a white 384-well culture plate (cat. no. 781080, Greiner Bio-One) and allowed to rest for 24 hours at 37 °C, 95% humidity, and 5% CO2. 5 μl compound solution was added to the cells and incubation was continued for 72 hours (3 days), followed by addition of 24 μl ATPlite 1Step™ (PerkinElmer, Groningen, The Netherlands) solution was added to each well. Luminescence was recorded on an Envision multimode reader. The cell signal at the start of incubation was recorded separately in order to distinguish between cell population growth and cell death. In addition, maximum growth was determined by incubation of a duplicate without compound in the presence of 0.3% DMSO. Percentage growth was used as the main y-axis signal. IC50s were fitted by non-linear regression using IDBS XLfit™5 using a 4-parameter logistic curve, yielding a maximum signal, minimum signal, hill-parameter and IC50.

RET = RET (Homo sapiens, UniProt P07949); assay: Binding kinetics assay (surface plasmon resonance) RET; conditions: SPR, 22 °C
Excerpt: as §1, §2

[3] = system: KG-1 acute myeloid leukemia cells; assay: Cell proliferation assay KG-1; conditions: read-out: IC50 value, KG-1 cells, 72 hours
Protocol: KG-1 acute myeloid leukemia cells were purchased from American Type Culture Collection (cat. no. CCL-246, ATCC). Frozen stocks were thawed and cells were diluted in IMDM cell culture medium (cat. no. 31980022, Life Technologies), supplemented with 20% (v/v) fetal calf serum and 1% penicillin/streptavidin. 3200 cells per well (in 45 μl) were seeded in a white 384-well culture plate (cat. no. 781080, Greiner Bio-One) and allowed to rest for 24 hours at 37 °C, 95% humidity, and 5% CO2. 5 μl compound solution was added to the cells and incubation was continued for 72 hours (3 days), followed by addition of 24 μl ATPlite 1Step™ (PerkinElmer, Groningen, The Netherlands) solution was added to each well. Luminescence was recorded on an Envision multimode reader. The cell signal at the start of incubation was recorded separately in order to distinguish between cell population growth and cell death. In addition, maximum growth was determined by incubation of a duplicate without compound in the presence of 0.3% DMSO. Percentage growth was used as the main y-axis signal.
IC50s were fitted by non-linear regression using IDBS XLfit™5 using a 4-parameter logistic curve, yielding a maximum signal, minimum signal, hill-parameter and IC50.

AurB = AurB (Homo sapiens, UniProt Q96GD4); assay: Binding kinetics assay (surface plasmon resonance) AUR-B; conditions: SPR, 22 °C
Excerpt: as §1, §2

Fms = Fms (Homo sapiens, UniProt P07333); assay: Binding kinetics assay (surface plasmon resonance) FMS; conditions: SPR, 22 °C
Excerpt: as §1, §2

BTK (Act) = BTK (Act) (Homo sapiens, UniProt Q06187); assay: Binding kinetics assay (surface plasmon resonance) wt-BTK; conditions: SPR, 22 °C
Excerpt: as §1, §2

[4] = system: REC-1 mantle cell lymphoma cells; assay: Cell proliferation assay REC-1; conditions: read-out: IC50 value, REC-1 cells, 120 hours
Protocol: REC-1 mantle cell lymphoma cells were purchased from Deutsche Sammlung von Mikroorganismen und Zellkulturen (cat. no. ACC 584, DSMZ) and cultured in RPMI-1640 cell culture medium (cat. no. 61870036, Life Technologies), supplemented with 18% (v/v) fetal bovine calf serum and 1% penicillin/streptavidin. 1200 cells per well (in 45 μl) were seeded in a white 384-well culture plate (cat. no. 781080, Greiner Bio-One) and allowed to rest for at least 5 hours at 37 °C, 95% humidity, and 5% CO2. 5 μl compound solution was added to the cells and incubation was continued for 120 hours (5 days), followed by addition of 24 μl ATPlite 1Step™ (PerkinElmer, Groningen, The Netherlands) solution was added to each well. Luminescence was recorded on an Envision multimode reader. The cell signal at the start of incubation was recorded separately in order to distinguish between cell population growth and cell death. In addition, maximum growth was determined by incubation of a duplicate without compound in the presence of 0.3% DMSO. Percentage growth was used as the main y-axis signal. IC50s were fitted by non-linear regression using IDBS XLfit™5 using a 4-parameter logistic curve, yielding a maximum signal, minimum signal, hill-parameter and IC50.

PDGFrB = PDGFrB (Homo sapiens, UniProt P09619); assay: Binding kinetics assay (surface plasmon resonance) PDGFR-β; conditions: SPR, 22 °C
Excerpt: as §1, §2

FGFR3 = FGFR3 (Homo sapiens, UniProt P22607); assay: Binding kinetics assay (surface plasmon resonance) FGFR3; conditions: FGFR3, SPR, 22 °C
Excerpt: as §1, §2

| Structure (SMILES) | Kd (FLT3) | Target residence time Tau (τ) (FLT3) | IC50 [1] | IC50 [2] | also measured |
| --- | --- | --- | --- | --- | --- |
| CC(C)(C)c1cc(NC(=O)Cc2ccc(-c3nc4n5c(cnc(N)c35)/C=C/CCOCCC(=O)N[C@@H]3CC[C@@H]4C3)cc2)no1 | – | – | < 50 nM | < 75 nM | Kd (RET): < 5 nM; Target residence time Tau (τ) (RET): C (τ 3 h); IC50 [3]: < 300 nM |
| C[C@@H]1CCn2nc(-c3ccc(NC(=O)c4cccc(C(F)(F)F)c4)cc3)c3c(N)ncc(c32)/C=C/CCOCCC(=O)N1 | – | – | – | – | Kd (AurB): 5 to 50 nM; Target residence time Tau (τ) (AurB): A (τ between 0.2 h and 1 h); Kd (Fms): 50 to 500 nM; Target residence time Tau (τ) (Fms): B (τ between 1 and 3 h) |
| COc1ccc(F)cc1C(=O)NCc1ccc(-c2nn3c4c(cnc(N)c24)/C=C/CCCCC(=O)N[C@@H]2CCC[C@@H]3C2)cc1 | – | – | – | – | Target residence time Tau (τ) (BTK (Act)): B (τ between 1 and 3 h); IC50 [4]: < 50 nM |
| CN1C/C=C/c2cnc(N)c3c(-c4ccc(C(=O)Nc5cc(C(F)(F)F)ccn5)cc4)nc(n23)[C@@H]2CCCN(C2)C(=O)CCCC1 | – | – | – | – | Kd (BTK (Act)): < 5 nM; Target residence time Tau (τ) (BTK (Act)): B (τ between 1 and 3 h) |
| COc1cc(C#Cc2nn3c4c(cnc(N)c24)/C=C/CCCCCCC(=O)N2CCC[C@@H]3C2)cc(OC)c1 | – | – | – | – | Kd (FGFR3): 5 to 50 nM; Target residence time Tau (τ) (FGFR3): A (τ between 0.2 h and 1 h) |

Now from value to molecule, other results behind:

| Kd (FLT3) | Target residence time Tau (τ) (FLT3) | IC50 [1] | IC50 [2] | Structure (SMILES) | also measured |
| --- | --- | --- | --- | --- | --- |
| 50 to 500 nM | B (τ between 1 and 3 h) | < 50 nM | < 75 nM | C[C@@H]1CC(=O)N[C@@H]2CCC[C@H](C2)c2nc(-c3ccc(NC(=O)Nc4cc(C(C)(C)C)on4)cc3)c3c(N)ncc(n23)/C=C/CCN1 | – |
| 5 to 50 nM | C (τ 3 h) | < 50 nM | < 75 nM | CC(C)(C)c1cc(NC(=O)Nc2ccc(-c3nn4c5c(cnc(N)c35)/C=C/CCCCCC(=O)N[C@@H]3CCC[C@@H]4C3)cc2)no1 | – |
| 5 to 50 nM | A (τ between 0.2 h and 1 h) | < 50 nM | < 75 nM | C[C@@H]1CCn2nc(-c3ccc(NC(=O)Nc4cc(C(C)(C)C)on4)cc3)c3c(N)ncc(c32)/C=C/CCCCCC(=O)N1 | Kd (Fms): 50 to 500 nM; Target residence time Tau (τ) (Fms): A (τ between 0.2 h and 1 h); Kd (PDGFrB): 5 to 50 nM; Target residence time Tau (τ) (PDGFrB): A (τ between 0.2 h and 1 h) |
| 50 to 500 nM | A (τ between 0.2 h and 1 h) | < 50 nM | < 75 nM | CC(C)(C)c1cc(NC(=O)Nc2ccc(-c3nn4c5c(cnc(N)c35)/C=C/CCCCCCC(=O)N3CCC[C@@H]4C3)cc2)no1 | – |
